Data taken from patent publication US9884067B2, “Androgen receptor down-regulating agents and uses thereof” (UNIVERSITY OF MARYLAND EASTERN SHORE, priority 2013, dated 2018).

Tested on: full-length AR
Experiment: Down-regulation of full-length AR, western blot in CWR22rv1 cells
Assay type: cell-based, human
Conditions: CWR22rv1 prostate cancer cell line

SMILES: CNC(=O)c1ccc(N2C(=S)N(c3ccc(C#N)c(C(F)(F)F)c3)C(=O)C2(C)C)cc1F [MDV3100 (6), enzalutamide, reference compound]
- down-regulation of full-length AR: did not affect the expression levels
